# Assay results from paper PMC9935396.
# The chains behind the UniProt entries cited, without tags or fusion partners. Where a name states a change or a piece, a line headed by the entry shows the natural chain unless it says otherwise.
# UniProt P16370: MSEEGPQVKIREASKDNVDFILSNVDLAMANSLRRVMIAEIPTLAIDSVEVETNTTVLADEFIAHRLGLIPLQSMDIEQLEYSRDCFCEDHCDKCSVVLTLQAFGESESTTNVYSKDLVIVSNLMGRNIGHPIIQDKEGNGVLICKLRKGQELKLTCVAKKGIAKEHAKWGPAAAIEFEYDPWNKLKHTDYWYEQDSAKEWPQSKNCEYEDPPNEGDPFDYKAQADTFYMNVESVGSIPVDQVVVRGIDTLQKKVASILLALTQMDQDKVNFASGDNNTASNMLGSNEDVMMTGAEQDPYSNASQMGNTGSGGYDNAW
# Some of the results follow.
# Biological target: DNA-directed RNA polymerase II subunit RPB3 (UniProt P16370)
# Test: cross-link between two proteins; cross-linking mass spectrometry
substance,measurement,value
"DNA-directed RNA polymerase II subunit RPB1, P04050",listed as a hit,yes
